Earlier results, collected in patent US20090186900A1, “COMPOUND” (priority 2006, published 2009).

Amino acid sequences for entries named in this document (tags omitted). Residues count along the entry.
UniProt P08842, 22-583: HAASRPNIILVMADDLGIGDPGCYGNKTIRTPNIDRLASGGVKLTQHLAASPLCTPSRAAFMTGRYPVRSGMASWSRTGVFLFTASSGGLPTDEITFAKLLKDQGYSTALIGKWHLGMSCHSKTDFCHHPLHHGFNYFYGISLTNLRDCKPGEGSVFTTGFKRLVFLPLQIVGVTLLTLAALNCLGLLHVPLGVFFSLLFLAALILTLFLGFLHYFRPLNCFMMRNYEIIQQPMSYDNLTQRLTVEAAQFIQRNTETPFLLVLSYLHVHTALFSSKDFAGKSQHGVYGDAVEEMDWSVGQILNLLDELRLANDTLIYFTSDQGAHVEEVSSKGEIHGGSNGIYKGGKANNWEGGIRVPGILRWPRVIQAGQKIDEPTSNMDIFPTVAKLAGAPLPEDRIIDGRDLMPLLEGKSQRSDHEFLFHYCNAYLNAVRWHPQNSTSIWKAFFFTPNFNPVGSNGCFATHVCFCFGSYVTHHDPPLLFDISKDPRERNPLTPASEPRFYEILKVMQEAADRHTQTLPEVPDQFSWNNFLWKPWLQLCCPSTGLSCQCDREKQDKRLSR

Biological target: steroid sulphatase (Homo sapiens, UniProt P08842)
Settings: in vitro; cited from earlier work

## NS(=O)(=O)Oc1ccc2c3c(c(=O)oc2c1)CCCCC3 [Compound 667COUMATE]
  potency relative to EMATE: ~3 times
